From patent publication US20170247393A1, “Aminoisoxazoline Compounds as Agonists of Alpha7-Nicotinic Acetylcholine Receptors” (Forum Pharmaceuticals, Inc., priority 2015, published 2017) come the findings set out here.

Chains of the proteins cited; added tags and fusions are not shown. Residues count along the entry.
UniProt P36544, 23-502 limits assumed: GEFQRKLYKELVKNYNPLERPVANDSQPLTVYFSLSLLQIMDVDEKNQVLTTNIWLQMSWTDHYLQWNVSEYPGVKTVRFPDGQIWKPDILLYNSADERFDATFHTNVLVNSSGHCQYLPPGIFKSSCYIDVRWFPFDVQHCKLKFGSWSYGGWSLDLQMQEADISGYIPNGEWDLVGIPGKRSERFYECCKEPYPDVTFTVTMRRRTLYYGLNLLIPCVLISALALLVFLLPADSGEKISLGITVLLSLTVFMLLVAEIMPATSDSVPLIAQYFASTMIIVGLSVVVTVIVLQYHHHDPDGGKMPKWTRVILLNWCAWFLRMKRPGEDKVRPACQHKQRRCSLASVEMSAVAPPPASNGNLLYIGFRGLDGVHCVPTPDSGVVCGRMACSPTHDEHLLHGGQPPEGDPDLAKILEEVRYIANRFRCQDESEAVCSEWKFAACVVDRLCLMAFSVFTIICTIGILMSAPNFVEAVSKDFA

The term Ki denotes a measure of affinity in units of concentration, obtained from inhibition or displacement.

Structures can show the parent of a compound that is named as a salt.

The assay deals with human α7 nAChR (Homo sapiens, UniProt P36544). Briefly: Human α7 nAChR binding assay ([125I]-αBungarotoxin competition binding, Cerep). The settings on record: read-out: h- α7 Ki; SH-SY5Y membranes expressing human α7 nAChR, 0.05 nM [125I]-αBgt, 120 min at 37° C.
Consider `Clc1ccc2cnc(NC3=NO[C@@]4(C3)CN3CCC4CC3)cc2c1` [(R)-18, (R)—N-(6-chloroisoquinolin-3-yl)-4H-1′-azaspiroksoxazole-5,3^1-bicyclo[2.2.2]octan1-3-amine hydrochloride], for which the Ki stood at 175 nM.
With `c1ccc2nc(NC3=NOC4(C3)CN3CCC4CC3)ccc2c1` (single isomer, unassigned), the Ki is > 30000 nM.
In the case of `FC(F)(F)c1cc2ccc(NC3=NO[C@@]4(C3)CN3CCC4CC3)cc2s1` [(R)-67, (R)—N-(2-(trifluoromethyl)benzo[b]thiophen-6-yl)-4H-1′-azaspiro[isoxazole-5,3′-bicyclo[2.2.2]octan]-3-amine hydrochloride], the Ki was determined as 425 nM.
`Cn1ncc2cc(NC3=NO[C@@]4(C3)CN3CCC4CC3)ccc21` [(R)-65, (R)—N-(1-methyl-1H-indazol-5-yl)-4H-1′-azaspiro[isoxazole-5,3′-bicyclo[2.2.2]octan]-3-amine hydrochloride]: the Ki amounted to 410 nM.
`FC(F)(F)c1cc(NC2=NO[C@@]3(C2)CN2CCC3CC2)ccc1Cl`: the Ki amounted to 750 nM.
As for `c1nc(NC2=NO[C@@]3(C2)CN2CCC3CC2)cc2c1CCCC2`, the Ki was > 30000 nM.
Regarding `Cc1cc2ccc(NC3=NO[C@@]4(C3)CN3CCC4CC3)cc2s1` [(R)-42, (R)—N-(2-methylbenzo[b]thiophen-6-yl)-4H-1′-azaspiro[isoxazole-5,3′-bicyclo[2.2.2]octan]-3-amine hydrochloride], the Ki stood at 66 nM.
Then `Fc1cc2cc(NC3=NO[C@@]4(C3)CN3CCC4CC3)ncc2cc1Cl` [(R)-82, (R)—N-(7-chloro-6-fluoroisoquinolin-3-yl)-4H-1′-azaspiro[isoxazole-5,3′-bicyclo[2.2.2]octan]-3-amine hydrochloride], with 87 nM; and `Clc1cc(NC2=NO[C@@]3(C2)CN2CCC3CC2)cc(Cl)c1Cl`, with 2900 nM.
Turning to `COc1ccc2cnc(NC3=NO[C@@]4(C3)CN3CCC4CC3)cc2c1` [(R)-47, (R)—N-(6-methoxyisoquinolin-3-yl)-4H-1′-azaspiro[isoxazole-5,3′-bicyclo[2.2.2]octan]-3-amine hydrochloride], the Ki was 335 nM.
Turning to `FC(F)(F)c1ccc2sc(NC3=NO[C@@]4(C3)CN3CCC4CC3)nc2c1`, the Ki turned out to be 560 nM.
Turning to `c1ccc2c(NC3=NOC4(C3)CN3CCC4CC3)n[nH]c2c1` (single isomer, unassigned), the inhibition constant (Ki) was > 30000 nM.
For the compound `Fc1cc2cnc(NC3=NO[C@@]4(C3)CN3CCC4CC3)cc2cc1F` [(R)-61, (R)—N-(6,7-difluoroisoquinolin-3-yl)-4H-1′-azaspiro[isoxazole-5,3′-bicyclo[2.2.2]octan]-3-amine hydrochloride], the Ki was 400 nM.
As for `COc1cc(NC2=NO[C@@]3(C2)CN2CCC3CC2)ccc1C1CC1`, the Ki was determined as 4500 nM.
In the case of `Cc1ccc2sc(NC3=NO[C@@]4(C3)CN3CCC4CC3)nc2c1` [(R)-25, (R)—N -(5-methylbenzo[d]thiazol-2-yl)-4H-1′-azaspiro[isoxazole-5,3′-bicyclo[2.2.2]octan]-3-amine hydrochloride], the Ki was determined as 68 nM.
Regarding `FC(F)(F)c1ccc2cnc(NC3=NO[C@@]4(C3)CN3CCC4CC3)cc2c1` [(R)-83, (R)—N-(6-(trifluoromethypisoquinolin-3-yl)-4H-1′-azaspiro[isoxazole-5,3′-bicyclo[2.2.2]octan]-3-amine hydrochloride], the Ki is 230 nM.
For the compound `c1ccc(NC2=NOC3(C2)CN2CCC3CC2)nc1` (single isomer, unassigned), the Ki is > 30000 nM.
Regarding `Clc1cc2ccc(NC3=NO[C@@]4(C3)CN3CCC4CC3)cc2o1` [(R)-63, (R)—N-(2-chlorobenzofuran-6-yl)-4H-1′-azaspiro[isoxazole-5,3′-bicyclo[2.2.2]octan]-3-amine hydrochloride], the Ki worked out at 54.5 nM.
Then `Clc1coc2cc(NC3=NO[C@@]4(C3)CN3CCC4CC3)ccc12` [(R)-73-1, (R)—N-(3-chlorobenzofuran-6-yl)-4H-1′-azaspiro[isoxazole-5,3′-bicyclo[2.2.2]octan]-3-amine hydrochloride], with 33 nM.
Then `Clc1cccc2cnc(NC3=NO[C@@]4(C3)CN3CCC4CC3)cc12` [(R)-24, (R)—N -(5-chloroisoquinolin-3-yl)-4H-1′-azaspiroksoxazole-5,3′-bicyclo[2.2.2]octan1-3-amine hydrochloride], with 890 nM.
On to `Cc1nc2ccc(NC3=NO[C@@]4(C3)CN3CCC4CC3)cc2n1C`, for which the inhibition constant Ki is 1400 nM.
With `Clc1cc2cnc(NC3=NO[C@@]4(C3)CN3CCC4CC3)cc2cc1Cl` [(R)-62, (R)—N-(6,7-dichloroisoquinolin-3-yl)-4H-1′-azaspiro[isoxazole-5,3′-bicyclo[2.2.2]octan]-3-amine trifluoroacetate], the Ki was 47 nM.
On to `Cc1noc2cc(NC3=NO[C@@]4(C3)CN3CCC4CC3)ccc12` [(R)-66, (R)—N -(3-methylbenzo[d]isoxazol-6-yl)-4H-1′-azaspiro[isoxazole-5,3′-bicyclo[2.2.2]octan]-3-amine hydrochloride], for which the Ki was found to be 94.5 nM.
As to `Cc1cc2cc(NC3=NO[C@@]4(C3)CN3CCC4CC3)ccc2s1` [(R)-43, (R)—N-(2-methylbenzo[b]thiophen-5-yl)-4H-1′-azaspiro[isoxazole-5,3′-bicyclo[2.2.2.]octan]-3-amine hydrochloride], the Ki was 210 nM.
Take `Cc1cc2cnc(NC3=NO[C@@]4(C3)CN3CCC4CC3)cc2o1` [(R)-100, (R)-N-(2-methylfuro[3,2-c]pyridin-6-yl)spiro[4H-isoxazole-5,3′-quinuclidine]-3-amine hydrochloride]: the Ki is > 30000 nM.
On to `Clc1cccc2nc(NC3=NO[C@@]4(C3)CN3CCC4CC3)sc12` [(R)-11, (R)—N-(7-chlorobenzo[d]thiazol-2-yl)-4H-1′-azaspiro[isoxazole-5,3′-bicyclo[2.2.2]octan]-3-amine], for which the Ki came out at 210 nM.
Consider `Cc1ccc2nc(NC3=NO[C@@]4(C3)CN3CCC4CC3)ncc2c1` [(R)-70, (R)—N-(6-methylquinazolin-2-yl)spiro[4H-isoxazole-5,3^1-quinuclidine]-3-amine], for which the Ki came out at 30 nM.
With `c1nc(NC2=NO[C@]3(C2)CN2CCC3CC2)cc2c1CCCC2`, the inhibition constant (Ki) was > 30000 nM.
Then `Cc1ccc2cnc(NC3=NO[C@@]4(C3)CN3CCC4CC3)cc2c1` [(R)-60, (R)—N-(6-methylisoquinolin-3-yl)-4H-1′-azaspiro[isoxazole-5,3′-bicyclo[2.2.2]octan]-3-amine hydrochloride], with 102 nM; and `Fc1cc2sc(NC3=NO[C@@]4(C3)CN3CCC4CC3)nc2cc1Cl`, with 340 nM; and `c1cnc2ccc(NC3=NO[C@@]4(C3)CN3CCC4CC3)cc2c1` [(R)-80, (R)—N-(quinolin-6-yl)-41-1-1^1-azaspiro[isoxazole-5,3′-bicyclo[2.2.2]octan]-3-amine hydrochloride], with 180 nM.
Consider `Clc1cccc2cc(NC3=NO[C@@]4(C3)CN3CCC4CC3)ncc12` [(R)-23, (R)—N-(8-chloroisoquinolin-3-yl)-4H-1′-azaspiroksoxazole-5,3^1-bicyclo[2.2.2]octan1-3-amine hydrochloride], for which the Ki was 400 nM.
For the compound `Clc1ccc2nc(NC3=NO[C@@]4(C3)CN3CCC4CC3)ncc2c1` [(R)-48, (R)—N-(6-chloroquinazolin-2-yl)-4H-1′-azaspiro[isoxazole-5,3′-bicyclo[2.2.2]octan]-3-amine hydrochloride], the Ki is 42.5 nM.
For the compound `FC(F)(F)c1csc2cc(NC3=NO[C@@]4(C3)CN3CCC4CC3)ccc12`, the Ki was 770 nM.
For `FC(F)(F)c1ccc(NC2=NO[C@@]3(C2)CN2CCC3CC2)cc1Cl` the value was 1700 nM; for `Cc1cc2cnc(NC3=NO[C@@]4(C3)CN3CCC4CC3)cc2s1` [(R)-99, (R)-N-(2-methylthieno[3,2-c]pyridin-6-yl)spiro[4H-isoxazole-5,3′-quinuclidine]-3-amine hydrochloride], > 30000 nM; for `c1cc2nc(NC3=NOC4(C3)CN3CCC4CC3)ccc2o1` (single isomer, unassigned), > 30000 nM.
Regarding `Clc1cc2c(Cl)coc2cc1NC1=NO[C@@]2(C1)CN1CCC2CC1`, the Ki worked out at 4200 nM.
`Clc1ccc2cc(NC3=NO[C@@]4(C3)CN3CCC4CC3)ncc2c1` [(R)-19, (R)—N-(7-chloroisoquinolin-3-yl)-4H-1′-azaspiro[isoxazole-5,3′-bicyclo[2.2.2]octan]-3-amine hydrochloride]: the inhibition constant Ki is 143 nM.
Take `Fc1cc2sc(NC3=NO[C@@]4(C3)CN3CCC4CC3)nc2c(F)c1F`: the Ki amounted to 2100 nM.
Turning to `Clc1ccc(NC2=NO[C@@]3(C2)CN2CCC3CC2)cc1C1CC1`, the Ki was 1000 nM.
In the case of `Cn1cnc2ccc(NC3=NO[C@@]4(C3)CN3CCC4CC3)cc21`, the Ki was 1700 nM.
